ChEMBL document CHEMBL1144698, “New approach to measure protein binding based on a parallel artificial membrane assay and human serum albumin” (J Med Chem, 2008)

Chains of the proteins cited; added tags and fusions are not shown.
UniProt P02768, whole entry: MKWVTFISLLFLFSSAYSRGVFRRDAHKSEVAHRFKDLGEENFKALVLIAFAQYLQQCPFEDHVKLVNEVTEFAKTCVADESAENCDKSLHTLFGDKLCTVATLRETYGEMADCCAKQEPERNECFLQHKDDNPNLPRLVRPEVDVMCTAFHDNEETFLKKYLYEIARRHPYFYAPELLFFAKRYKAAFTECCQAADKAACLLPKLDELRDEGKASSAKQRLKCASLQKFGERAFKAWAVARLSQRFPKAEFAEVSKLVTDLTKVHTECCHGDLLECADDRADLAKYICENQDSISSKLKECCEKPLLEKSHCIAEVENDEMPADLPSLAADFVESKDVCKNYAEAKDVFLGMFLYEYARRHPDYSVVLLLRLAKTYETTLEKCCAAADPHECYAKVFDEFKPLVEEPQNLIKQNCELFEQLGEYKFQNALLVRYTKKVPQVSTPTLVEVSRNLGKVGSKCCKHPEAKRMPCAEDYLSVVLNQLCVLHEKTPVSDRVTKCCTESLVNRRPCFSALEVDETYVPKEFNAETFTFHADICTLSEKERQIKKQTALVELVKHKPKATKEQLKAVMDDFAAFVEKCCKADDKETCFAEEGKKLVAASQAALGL

Target: Albumin (Homo sapiens, UniProt P02768)
Experiment: Binding affinity to human serum albumin by PAMPA method
Type: ADME

- Kd: 55 µM
Structure (SMILES): CN(C)CCCN1c2ccccc2Sc2ccc(Cl)cc21 [CHLORPROMAZINE]
